Experiment [1] relates to zebrafish larvae gut epithelium. Put plainly: Transmission electron microscopy of gut epithelium. Particulars: PSA-exposed samples compared to controls, 8 d.p.f.
Experiment [2] concerns zebrafish larvae with PSA-induced IBD. Put plainly: Histology (haematoxylin and eosin sections) of gut in PSA-induced IBD. The settings on record: versus control. It counts as in vivo.
The test system is the same in experiment [3]. Put plainly: In vivo examination of gut architecture and motility (quercetin labelling) in PSA-induced IBD. The settings on record: PSA in embryo medium from 3 to 8 d.p.f., versus control.
For another experiment, the system named is mast cells. Kind of experiment: Mast cell staining and quantification in PSA-induced IBD. Particulars: fish exposed to PSA, versus control.
Another experiment concerns TNFα. Kind of experiment: TNFα wholemount antibody labelling / immunofluorescence in PSA-induced IBD. The settings on record: PSA-exposed samples; staining absent in controls.

For trinitrobenzene sulfonic acid, the “Gap and tight junctions between cells (TEM)” value in experiment [1] was “loss of gap and tight junctions between cells”. Also, the “Goblet cells in mid-intestine and posterior intestine” value in experiment [2] (PSA-exposed samples) is given as “high numbers of goblet cells were observed”. In experiment [2] (fish exposed to PSA), the “Gut histology (lumen, villi, clefts)” value was “the lumen of the gut was expanded and the lining of the gut was smooth, devoid of villi and clefts”. Also, in experiment [3], the “Gut architecture in vivo” value was “the gut was dilated and there was reduction in villus length and expansion of crypts”; the Peristalsis in vivo result is recorded as “peristalsis was lost”. Moreover, the “Mast cell infiltration throughout the gut” value with mast cells is “markedly increased”. Also, the “TNFα wholemount antibody staining” value in the experiment on TNFα is “strong staining on the luminal epithelium”.

The record behind these values is patent publication US20060233709A1, “Method for identifying novel treatments of inflammatory disease in the gut” (priority 2003, published 2006).
